From patent US5158770A (dated 1992) come the findings set out here.

The data set is described as follows: Solubility Test-1: dissolution of ginkgo leaf extract dry powder in aqueous solution of the compound. In kind it is physicochemical. To be noted: 5 g compound in 100 ml water at 20° C., 10 g ginkgo leaf extract, shaken 10 minutes.

Take `Cl.N[C@@H](Cc1c[nH]cn1)C(=O)O` [Histidine hydrochloride]: the Dissolution state result was “.largecircle”.

With `NCCO` [Monoethanol amine], the Dissolution state entry was “.largecircle”.
